The list shows a part of the results, in another mix than the full data. Active and inactive are the calls of the source. The rule behind the calls is not given here.
Target: Induced myeloid leukemia cell differentiation protein Mcl-1 (Homo sapiens) (UniProt Q07820)
Assay: Mcl-1/Bim interaction regulators – biochemical, bead-based flow cytometry, multiplexed, human, dose response (AID 1329)
Conditions: Bim peptide-Mcl-1 binding, MCF

Chains of the proteins cited; added tags and fusions are not shown.
UniProt Q07820, whole entry, looked up: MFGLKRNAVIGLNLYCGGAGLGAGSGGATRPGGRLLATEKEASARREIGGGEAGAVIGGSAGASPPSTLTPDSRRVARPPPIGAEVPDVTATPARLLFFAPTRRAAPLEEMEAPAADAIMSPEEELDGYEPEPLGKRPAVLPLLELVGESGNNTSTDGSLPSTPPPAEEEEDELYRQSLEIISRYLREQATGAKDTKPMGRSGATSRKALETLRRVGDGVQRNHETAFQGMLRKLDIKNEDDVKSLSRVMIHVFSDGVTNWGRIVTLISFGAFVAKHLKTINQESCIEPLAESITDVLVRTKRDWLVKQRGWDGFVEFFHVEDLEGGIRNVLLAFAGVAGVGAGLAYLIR

SMILES: CCOP1(=S)c2c(C)nn(CCC#N)c2N=C(c2ccc(F)cc2)N1C (stereo unspecified)
- percent span: inactive
